Values quoted from earlier work, collected in patent US9937165B2, “Pharmacological chaperones for treating obesity” (Amicus Therapeutics, Inc., priority 2005, dated 2018).

Sequences of proteins named here, by UniProt entry; tags and fusion partners are left off.
UniProt P32245, whole entry: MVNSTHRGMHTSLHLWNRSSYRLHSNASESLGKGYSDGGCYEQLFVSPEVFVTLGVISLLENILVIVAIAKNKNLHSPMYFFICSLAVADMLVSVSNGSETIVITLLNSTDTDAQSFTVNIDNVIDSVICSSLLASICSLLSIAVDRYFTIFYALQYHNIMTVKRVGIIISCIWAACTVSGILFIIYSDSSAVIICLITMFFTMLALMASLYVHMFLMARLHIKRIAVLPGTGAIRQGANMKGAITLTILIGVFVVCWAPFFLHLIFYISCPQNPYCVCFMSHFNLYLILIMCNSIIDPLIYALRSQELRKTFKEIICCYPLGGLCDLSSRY
UniProt P32245, whole entry R165Q: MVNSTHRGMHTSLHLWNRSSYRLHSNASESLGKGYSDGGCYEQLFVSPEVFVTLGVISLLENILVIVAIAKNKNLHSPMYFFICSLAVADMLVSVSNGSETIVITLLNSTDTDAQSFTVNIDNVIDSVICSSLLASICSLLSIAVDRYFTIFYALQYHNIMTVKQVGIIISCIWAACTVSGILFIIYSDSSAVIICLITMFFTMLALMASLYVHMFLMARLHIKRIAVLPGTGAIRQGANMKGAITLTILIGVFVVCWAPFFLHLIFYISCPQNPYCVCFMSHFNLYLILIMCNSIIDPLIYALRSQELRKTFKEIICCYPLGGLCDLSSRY
UniProt P32245, whole entry I317T: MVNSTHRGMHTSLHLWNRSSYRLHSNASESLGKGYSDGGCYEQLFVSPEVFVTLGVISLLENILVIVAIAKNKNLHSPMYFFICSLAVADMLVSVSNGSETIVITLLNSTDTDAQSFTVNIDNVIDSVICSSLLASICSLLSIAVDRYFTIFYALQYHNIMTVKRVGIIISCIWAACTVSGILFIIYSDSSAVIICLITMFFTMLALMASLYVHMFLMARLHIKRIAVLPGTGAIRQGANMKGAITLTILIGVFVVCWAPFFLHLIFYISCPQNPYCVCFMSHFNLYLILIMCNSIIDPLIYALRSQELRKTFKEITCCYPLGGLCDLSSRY
UniProt P32245, whole entry T112M: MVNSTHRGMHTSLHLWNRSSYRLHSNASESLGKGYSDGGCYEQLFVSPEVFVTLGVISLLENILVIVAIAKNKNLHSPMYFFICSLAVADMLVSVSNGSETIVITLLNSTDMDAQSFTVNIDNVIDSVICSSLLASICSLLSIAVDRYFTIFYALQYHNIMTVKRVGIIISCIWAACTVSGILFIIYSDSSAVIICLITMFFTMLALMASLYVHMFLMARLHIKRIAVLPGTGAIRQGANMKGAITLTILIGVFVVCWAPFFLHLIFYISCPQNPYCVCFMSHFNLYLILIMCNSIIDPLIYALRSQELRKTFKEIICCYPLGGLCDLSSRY
UniProt P32245, whole entry S30F/G252S: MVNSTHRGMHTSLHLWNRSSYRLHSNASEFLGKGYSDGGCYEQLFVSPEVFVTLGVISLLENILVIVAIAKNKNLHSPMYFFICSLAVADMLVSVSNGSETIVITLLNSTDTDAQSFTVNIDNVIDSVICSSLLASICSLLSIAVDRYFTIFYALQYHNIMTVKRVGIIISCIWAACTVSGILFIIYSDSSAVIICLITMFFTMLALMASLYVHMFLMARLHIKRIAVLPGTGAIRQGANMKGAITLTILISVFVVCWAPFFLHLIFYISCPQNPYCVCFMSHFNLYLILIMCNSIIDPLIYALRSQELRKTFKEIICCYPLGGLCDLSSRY
UniProt P32245, whole entry I301T: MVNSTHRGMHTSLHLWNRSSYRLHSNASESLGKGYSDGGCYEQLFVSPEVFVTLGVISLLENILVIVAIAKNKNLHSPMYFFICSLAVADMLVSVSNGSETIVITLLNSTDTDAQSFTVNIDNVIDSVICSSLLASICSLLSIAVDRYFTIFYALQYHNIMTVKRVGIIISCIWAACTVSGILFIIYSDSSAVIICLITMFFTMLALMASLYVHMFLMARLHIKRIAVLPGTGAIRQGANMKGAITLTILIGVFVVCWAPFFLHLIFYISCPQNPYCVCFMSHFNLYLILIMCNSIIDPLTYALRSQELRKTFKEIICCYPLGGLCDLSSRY
UniProt P32245, whole entry V253I: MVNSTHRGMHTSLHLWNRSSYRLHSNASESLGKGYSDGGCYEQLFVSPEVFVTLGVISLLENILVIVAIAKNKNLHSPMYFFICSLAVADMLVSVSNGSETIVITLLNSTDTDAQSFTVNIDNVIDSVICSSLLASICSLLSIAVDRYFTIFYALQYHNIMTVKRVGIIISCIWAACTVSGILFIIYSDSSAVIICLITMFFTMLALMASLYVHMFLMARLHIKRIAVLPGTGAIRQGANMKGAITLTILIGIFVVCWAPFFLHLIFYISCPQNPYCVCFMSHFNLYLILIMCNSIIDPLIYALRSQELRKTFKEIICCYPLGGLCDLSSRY
UniProt P32245, whole entry I170V: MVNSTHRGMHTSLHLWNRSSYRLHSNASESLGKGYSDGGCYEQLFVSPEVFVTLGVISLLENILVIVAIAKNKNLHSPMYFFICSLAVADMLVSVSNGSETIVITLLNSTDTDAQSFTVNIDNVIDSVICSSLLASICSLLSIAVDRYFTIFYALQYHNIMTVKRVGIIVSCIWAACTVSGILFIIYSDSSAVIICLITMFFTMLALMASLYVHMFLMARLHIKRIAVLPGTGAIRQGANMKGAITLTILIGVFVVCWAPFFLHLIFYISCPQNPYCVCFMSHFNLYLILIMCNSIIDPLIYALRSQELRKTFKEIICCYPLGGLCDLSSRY
UniProt P32245, whole entry R165W: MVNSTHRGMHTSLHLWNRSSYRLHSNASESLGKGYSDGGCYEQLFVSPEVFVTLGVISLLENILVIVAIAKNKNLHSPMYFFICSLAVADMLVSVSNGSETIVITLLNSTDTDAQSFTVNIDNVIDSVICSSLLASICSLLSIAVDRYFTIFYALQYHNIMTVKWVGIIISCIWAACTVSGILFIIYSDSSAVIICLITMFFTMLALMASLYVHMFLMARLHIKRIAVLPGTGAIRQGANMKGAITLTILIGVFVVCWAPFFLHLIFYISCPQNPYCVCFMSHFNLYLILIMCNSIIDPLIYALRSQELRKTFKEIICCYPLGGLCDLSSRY
UniProt P32245, whole entry L250Q: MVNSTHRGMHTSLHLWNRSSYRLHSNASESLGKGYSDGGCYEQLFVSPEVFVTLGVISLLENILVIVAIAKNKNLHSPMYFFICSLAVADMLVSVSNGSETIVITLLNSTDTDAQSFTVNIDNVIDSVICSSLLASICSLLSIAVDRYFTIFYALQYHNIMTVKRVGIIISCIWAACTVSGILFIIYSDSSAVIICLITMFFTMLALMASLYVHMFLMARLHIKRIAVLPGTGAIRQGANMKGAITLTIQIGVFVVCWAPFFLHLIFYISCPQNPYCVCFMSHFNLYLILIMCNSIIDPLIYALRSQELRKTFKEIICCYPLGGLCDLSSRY

What was measured:
MC4R = MC4R (Homo sapiens, UniProt P32245); conditions: cited from earlier work
MC4R R165Q (C886A) = MC4R R165Q (C886A) (Homo sapiens, UniProt P32245, R165Q); conditions: mutant R165Q (C886A); +/- S.E.; cited from earlier work
MC4R I317T = MC4R I317T (Homo sapiens, UniProt P32245, I317T); conditions: mutant I317T; +/- S.E.; cited from earlier work
MC4R T112M = MC4R T112M (Homo sapiens, UniProt P32245, T112M); conditions: mutant T112M; +/- S.E.; cited from earlier work
MC4R S30F/G252S = MC4R S30F/G252S (Homo sapiens, UniProt P32245, G252S/S30F); conditions: mutant S30F/G252S; +/- S.E.; cited from earlier work
MC4R I301T = MC4R I301T (Homo sapiens, UniProt P32245, I301T); conditions: mutant I301T; +/- S.E.; cited from earlier work
MC4R V253I (A700G) = MC4R V253I (A700G) (Homo sapiens, UniProt P32245, V253I); conditions: mutant V253I (A700G); +/- S.E.; cited from earlier work
MC4R I170V = MC4R I170V (Homo sapiens, UniProt P32245, I170V); conditions: mutant I170V; +/- S.E.; cited from earlier work
WT MC4R = WT MC4R (Homo sapiens, UniProt P32245); conditions: +/- S.E.; cited from earlier work
MC4R R165W (C886T) = MC4R R165W (C886T) (Homo sapiens, UniProt P32245, R165W); conditions: mutant R165W (C886T); +/- S.E.; cited from earlier work
MC4R L250Q = MC4R L250Q (Homo sapiens, UniProt P32245, L250Q); conditions: mutant L250Q; +/- S.E.; cited from earlier work

Molecule	IC50 (MC4R)	IC50 (MC4R R165Q (C886A))	IC50 (MC4R I317T)	IC50 (MC4R T112M)	IC50 (MC4R S30F/G252S)	IC50 (MC4R I301T)	IC50 (MC4R V253I (A700G))	IC50 (MC4R I170V)	IC50 (WT MC4R)	IC50 (MC4R R165W (C886T))	IC50 (MC4R L250Q)
O=C(N[C@H](Cc1ccc(Cl)cc1)C(=O)N1CCN(c2ccccc2CN2CCCC2)CC1)[C@H]1Cc2ccccc2CN1 [Compound 2]	24 nM										
^125I-[Nle^4,D-Phe^7]α-MSH		8.9 ± 12 nM	7.8 ± 0.44 nM	5.4 ± 0.64 nM	6.7 ± 0.3 nM	5.8 ± 0.78 nM	8.1 ± 0.25 nM	8.9 ± 1.7 nM	9.1 nM	8.7 ± 1 nM	3.4 ± 0.69 nM
